In the assay the test system is GS5 cells. Description: GS5 cell proliferation/viability (MTT, AlamarBlue). The class given is cell-based, human. To be noted: read-out: IC50 of candidate drugs on GS5 cells, three days after treatment. A general note: Resazurin is reduced to fluorescent resorufin, in cell work by metabolically active cells.

With PAPP, the IC50 (commonly the concentration that gives 50% inhibition) is 900 nM. The figure for 8-Hydroxyquinidine is 2700 nM.

These data come from patent publication US20150118311A1, “Highly Penetrative Nanocarriers for Treatment of CNS Disease” (priority 2012, published 2015).
